# scFv variants of Ab-14 (heavy chain) against a SARS-CoV-2 spike peptide

All variants were tested on one target, the spike HR2 peptide PDVDLGDISGINAS (SARS-CoV-2).

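The variants were designed computationally from a first round of random CDR variants and then made and measured. Their group label is 14H_GP_Gen (GP: Gaussian process model; Gen: genetic algorithm; a sequence that several methods proposed may carry one label only). In AlphaSeq, yeast of one mating type display the scFv and yeast of the other type display the target. Binding brings cells together so that they mate, and sequencing counts the barcode pairs among the diploids. Each replicate has its own calibration line, from reference interactions of the BCL2 family. Mating was done six times.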

Ab-14 is the parent antibody, in scFv form: VH, then a (GGGGS)3 linker, then VL. The light chain is unchanged in all variants.
VH: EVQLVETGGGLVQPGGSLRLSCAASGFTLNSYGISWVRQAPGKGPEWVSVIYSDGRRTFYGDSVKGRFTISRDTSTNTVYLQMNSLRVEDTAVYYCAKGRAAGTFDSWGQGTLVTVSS
VL: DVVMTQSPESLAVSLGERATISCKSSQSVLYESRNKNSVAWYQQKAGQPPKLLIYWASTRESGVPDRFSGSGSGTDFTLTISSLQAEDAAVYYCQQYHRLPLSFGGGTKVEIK

Each variant's VH is given in full.
The read-out is the apparent dissociation constant on a log10 scale (nM): the lower, the stronger.
Averages over replicates are reported, and they cover detected replicates only.
"n.d." means that the variant was in the library but no mating with the target was seen in that replicate; the authors take this as a sign of poor binding, and no number exists.

VH	replicates, log10 nM	log10 Kd (nM), mean	signal with controls
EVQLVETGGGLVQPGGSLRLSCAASGFDLNSYGISWVRQAPGKGPEWVSVIYSDGRRTFYQDSVKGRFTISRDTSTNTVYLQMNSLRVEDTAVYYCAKGQTAGTFDSWGQGTLVTVSS	0.56 / 0.34 / 0.22 / 0.56 / 0.44 / 0.86	0.50	0/18
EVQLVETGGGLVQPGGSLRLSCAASGFDLNSYGISWVRQAPGKGPEWVSVIYSDGRRTFYQDSVKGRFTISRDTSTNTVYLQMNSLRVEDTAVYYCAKGAAAGTFDSWGQGTLVTVSS	0.17 / 0.21 / 0.40 / 0.44 / -0.20 / 0.20	0.20	0/18
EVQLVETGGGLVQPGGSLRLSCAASPFDLNSYGISWVRQAPGKGPEWVSVIYSDGRRTFYVDSVKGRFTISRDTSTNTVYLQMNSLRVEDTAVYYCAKGRQAGTFDSWGQGTLVTVSS	n.d. / 2.02 / n.d. / 2.59 / n.d. / 2.87	2.50	0/18
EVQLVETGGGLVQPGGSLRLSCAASGFDLNSYGISWVRQAPGKGPEWVSVIYSDGRRTFYGDSVKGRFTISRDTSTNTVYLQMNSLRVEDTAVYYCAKGHAAGTFDQWGQGTLVTVSS	0.46 / 0.37 / 0.55 / 0.71 / 0.54 / 0.78	0.57	1/18 (2.08)
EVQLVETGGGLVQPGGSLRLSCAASGFSLNEYGISWVRQAPGKGPEWVSVIYSDGRRTFYGDSVKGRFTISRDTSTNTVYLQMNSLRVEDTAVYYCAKGTTAGTFDSWGQGTLVTVSS	-0.02 / -0.24 / -0.38 / -0.17 / -0.37 / -0.25	-0.24	0/18
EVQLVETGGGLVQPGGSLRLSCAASGFDLNSYGISWVRQAPGKGPEWVSVIYSDGRRTFYQDSVKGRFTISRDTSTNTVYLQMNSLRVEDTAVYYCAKGWAAGTFDSWGQGTLVTVSS	1.15 / 2.07 / 0.57 / 0.87 / 0.77 / 0.47	0.98	0/18
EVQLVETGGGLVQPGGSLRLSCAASGFELNSYGISWVRQAPGKGPEWVSVIYADGRRTFYGDNVKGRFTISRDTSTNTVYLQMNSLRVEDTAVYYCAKGRTAGTFDSWGQGTLVTVSS	0.08 / -0.07 / -0.32 / -0.30 / -0.27 / -0.01	-0.15	0/18
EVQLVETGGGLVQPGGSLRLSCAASGFDLNSYGISWVRQAPGKGPEWVSVIYSDGKRTFYSDSVKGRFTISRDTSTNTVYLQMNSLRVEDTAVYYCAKGRAAGTFDSWGQGTLVTVSS	n.d. / n.d. / n.d. / n.d. / n.d. / 1.86	1.86	0/18
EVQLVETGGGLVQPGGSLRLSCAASGFSLNSYGISWVRQAPGKGPEWVSVIYSDGRRTFYGDSVKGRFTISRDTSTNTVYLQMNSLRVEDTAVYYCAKGHQAGTFDSWGQGTLVTVSS	n.d. / n.d. / n.d. / n.d. / n.d. / n.d.	n.d.	0/18
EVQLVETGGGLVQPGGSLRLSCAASGFDLNSYGISWVRQAPGKGPEWVSVIYSDGRRTAYGDSVKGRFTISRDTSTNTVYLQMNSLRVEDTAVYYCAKGRSAGTFDSWGQGTLVTVSS	0.11 / 0.13 / -0.42 / -0.34 / -0.09 / 0.25	-0.06	0/18
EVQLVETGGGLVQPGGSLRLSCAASGFTLNEYGISWVRQAPGKGPEWVSVIYSDGRRTFYGDSVKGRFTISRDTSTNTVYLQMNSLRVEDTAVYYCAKGKTAGTFDKWGQGTLVTVSS	1.58 / -0.18 / 0.98 / 0.18 / -0.15 / 0.26	0.44	0/18
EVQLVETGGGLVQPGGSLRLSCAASGFDLNSYGISWVRQAPGKGPEWVSVIYSDGRRTFYGDSVKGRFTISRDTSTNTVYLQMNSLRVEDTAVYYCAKGKKAGTFDSWGQGTLVTVSS	1.95 / n.d. / 1.80 / n.d. / 2.01 / 1.77	1.88	0/18
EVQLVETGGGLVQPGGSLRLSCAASGFHLNSYGISWVRQAPGKGPEWVSVIYSDGRRTFYTDSVKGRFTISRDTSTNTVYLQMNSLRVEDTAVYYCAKGQAAGTFDSWGQGTLVTVSS	1.80 / 1.46 / n.d. / n.d. / 2.09 / n.d.	1.78	0/18
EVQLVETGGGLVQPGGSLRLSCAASKFELNSYGISWVRQAPGKGPEWVSVIYSDGRRTFYADSVKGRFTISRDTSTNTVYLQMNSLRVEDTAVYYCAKGQTAGTFDSWGQGTLVTVSS	0.90 / n.d. / 0.35 / n.d. / n.d. / n.d.	0.62	0/18
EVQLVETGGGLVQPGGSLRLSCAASGFELNDYGISWVRQAPGKGPEWVSVIYSDGRRTFYGDSVKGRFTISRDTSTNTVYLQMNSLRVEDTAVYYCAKGKTAGTFDSWGQGTLVTVSS	-0.20 / -0.84 / 0.56 / -0.47 / -0.20 / -0.27	-0.24	1/18 (1.26)
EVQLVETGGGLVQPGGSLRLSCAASGFDLNSYGISWVRQAPGKGPEWVSVIYSDGKRTFYDDSVKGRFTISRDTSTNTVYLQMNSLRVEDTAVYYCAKGRAAGTFDSWGQGTLVTVSS	-0.10 / -0.19 / -0.53 / -0.41 / -0.53 / -0.65	-0.40	0/18
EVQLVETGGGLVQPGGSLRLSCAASGFQLNEYGISWVRQAPGKGPEWVSVIYSDGRRTFYGDSVKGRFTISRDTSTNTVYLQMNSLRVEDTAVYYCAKGKTAGTFDSWGQGTLVTVSS	-0.02 / 0.18 / 0.12 / 0.16 / 0.35 / 0.14	0.16	0/18

The last 2 entries again:

VH	replicates, log10 nM	log10 Kd (nM), mean	signal with controls
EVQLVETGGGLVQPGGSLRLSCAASGFDLNSYGISWVRQAPGKGPEWVSVIYSDGKRTFYDDSVKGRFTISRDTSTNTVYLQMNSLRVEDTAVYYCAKGRAAGTFDSWGQGTLVTVSS	-0.10 / -0.19 / -0.53 / -0.41 / -0.53 / -0.65	-0.40	0/18
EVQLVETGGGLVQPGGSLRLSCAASGFQLNEYGISWVRQAPGKGPEWVSVIYSDGRRTFYGDSVKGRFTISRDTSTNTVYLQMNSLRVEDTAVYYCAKGKTAGTFDSWGQGTLVTVSS	-0.02 / 0.18 / 0.12 / 0.16 / 0.35 / 0.14	0.16	0/18

Three control strains display no target. For all heavy chain designs, 1% of the pairings with them gave a signal, with a median of 2.08 and one signal in twenty below 0.84, so weak values seen in few replicates may be background. For each scFv, signals with the empty controls are counted beside the result, with their mean in brackets.
A sequence measured in both rounds can read differently, since the two assays cover different ranges.
In the paper, a design with two or fewer of six values counts as a poor binder.
Of ten entries with the parent sequence, four were seen in most replicates (averages 0.34 to 2.37), three in one and three in none, so single entries are noisy.

Reference: Li et al. 2023, doi:10.1038/s41467-023-39022-2. File: FLAb, binding data.